Laboratory results published in ChEMBL document CHEMBL4118139, “Novel naphthyloxy derivatives - Potent histamine H3 receptor ligands. Synthesis and pharmacological evaluation” (Bioorg Med Chem, 2018).

The chains behind the UniProt entries cited, without tags or fusion partners.
UniProt P31389, whole entry: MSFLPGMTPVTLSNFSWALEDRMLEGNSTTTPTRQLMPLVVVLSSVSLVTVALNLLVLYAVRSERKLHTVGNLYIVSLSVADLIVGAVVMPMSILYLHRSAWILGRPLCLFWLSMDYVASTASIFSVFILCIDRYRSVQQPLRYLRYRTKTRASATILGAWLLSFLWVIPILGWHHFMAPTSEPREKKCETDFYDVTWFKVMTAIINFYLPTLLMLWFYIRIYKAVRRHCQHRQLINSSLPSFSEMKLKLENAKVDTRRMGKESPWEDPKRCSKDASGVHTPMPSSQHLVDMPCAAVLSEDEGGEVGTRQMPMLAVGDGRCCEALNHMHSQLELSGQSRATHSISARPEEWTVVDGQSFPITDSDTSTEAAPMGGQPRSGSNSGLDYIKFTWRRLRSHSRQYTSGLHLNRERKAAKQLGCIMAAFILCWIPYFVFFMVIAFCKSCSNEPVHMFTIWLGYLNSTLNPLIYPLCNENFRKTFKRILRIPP

How the values were obtained:
[1] = target: Muscarinic acetylcholine receptor M3 (Cavia porcellus) (UniProt Q8VH26)
[2] = target: Histamine H1 receptor (Cavia porcellus) (UniProt P31389); experiment: Antagonist activity at histamine H1 receptor in guinea-pig ileum assessed as inhibition of histamine-induced contractions after 15 mins; type: functional

pKb [1] | inhibition [2] | pKb [2] | SMILES
6.39 | – | – | c1ccc2c(OCCCCCN3CCCCCC3)cccc2c1
5.78 | Dose-dependent effect | 5.91 | c1ccc2c(OCCCCCN3CCCCC3)cccc2c1
